Data reported in patent US6555113B1, “Modulation of cholesteryl ester transfer protein (CETP) activity” (priority 1995, dated 2003).

Amino acid sequences for entries named in this document (tags omitted). A change or cut given only in a name is not applied to a line headed by its entry.
UniProt P11597: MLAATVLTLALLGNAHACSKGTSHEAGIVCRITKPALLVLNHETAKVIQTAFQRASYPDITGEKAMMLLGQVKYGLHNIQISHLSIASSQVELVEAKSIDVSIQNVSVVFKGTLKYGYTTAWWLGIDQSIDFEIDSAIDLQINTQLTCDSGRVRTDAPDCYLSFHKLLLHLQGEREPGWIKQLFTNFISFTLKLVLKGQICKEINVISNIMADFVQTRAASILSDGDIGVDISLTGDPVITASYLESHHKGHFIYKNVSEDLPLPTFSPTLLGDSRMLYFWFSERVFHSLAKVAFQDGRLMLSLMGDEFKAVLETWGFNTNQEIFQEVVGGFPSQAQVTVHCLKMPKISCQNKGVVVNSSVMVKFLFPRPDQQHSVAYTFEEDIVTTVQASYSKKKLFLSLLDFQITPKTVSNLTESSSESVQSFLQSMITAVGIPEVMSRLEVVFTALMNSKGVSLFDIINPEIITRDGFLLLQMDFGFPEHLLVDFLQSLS
UniProt P22687: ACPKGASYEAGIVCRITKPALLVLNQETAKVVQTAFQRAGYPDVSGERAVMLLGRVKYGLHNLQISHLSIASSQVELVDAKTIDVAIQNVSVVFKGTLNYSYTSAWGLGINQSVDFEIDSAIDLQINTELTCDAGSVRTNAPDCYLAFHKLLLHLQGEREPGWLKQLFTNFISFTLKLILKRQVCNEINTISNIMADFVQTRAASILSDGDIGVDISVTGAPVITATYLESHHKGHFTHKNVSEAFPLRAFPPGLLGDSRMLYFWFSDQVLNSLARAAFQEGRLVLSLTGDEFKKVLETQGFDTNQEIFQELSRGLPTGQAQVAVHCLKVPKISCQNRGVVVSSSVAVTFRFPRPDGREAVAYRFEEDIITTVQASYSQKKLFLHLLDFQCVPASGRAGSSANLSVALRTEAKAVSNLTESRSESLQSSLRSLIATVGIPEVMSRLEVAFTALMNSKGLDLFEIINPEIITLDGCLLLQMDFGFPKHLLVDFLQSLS

What was measured:
recombinant human CETP [1] = target: T1, recombinant human CETP (Homo sapiens, UniProt P11597); assay: Direct ELISA for titering anti-CETP antibodies in plasma of vaccinated rabbits; conditions: rabbits rb#1-#3, 100 μg peptide in RIBI adjuvant Days 1, 28, 56; plasma Day 70
recombinant human CETP [2] = target: T1, recombinant human CETP; assay: Direct ELISA for anti-recombinant human CETP antibodies, rabbit cholesterol-fed atherosclerosis model; conditions: twelve vaccinated rabbits (Groups I and II), 100 μg peptide in RIBI adjuvant Days 0, 28, 49
[3] = target: peptide derived from the endogenous rabbit CETP sequence (Oryctolagus cuniculus, UniProt P22687); assay: Direct ELISA for autoreactive anti-rabbit (endogenous) CETP antibodies, rabbit atherosclerosis model; conditions: twelve vaccinated rabbits (Groups I and II), three weeks post final boost, before cholesterol diet

CQYIKANSKFIGITEFGFPEHLLVDFLQSLS
production of anti-CETP antibody specific for recombinant human CETP (recombinant human CETP [1]): all of the rabbits (rb#1-rb#3) of Group I produced anti-CETP antibody | production of anti-CETP antibody specific for recombinant human CETP (recombinant human CETP [2]): five of the twelve vaccinated rabbits | production of antibodies that reacted with the peptide derived from the endogenous rabbit CETP sequence [3]: six of the twelve vaccinated animals
